OPERA 2.9 data: vapor pressure values

Vapor pressure is log10 of mmHg; the set covers 15 to 30 °C, mostly 20 to 25 °C. The databases behind each value are named after "via".

log VP (log10 mmHg),structure (SMILES),via
0.197,Nc1ccccc1C(F)(F)F,eChemPortal
-4.824,CCCCCCCC(=O)SCCC[Si](OCC)(OCC)OCC,eChemPortal
-1.51,CC1CC(=O)OC1=O (configuration not stated),OCHEM
-1.62,O=C=NCCCCCN=C=O,eChemPortal
-6.78,O=C1c2cccc(Cl)c2C(=O)c2c(Cl)cccc21,eChemPortal
-9,CN(C)c1ccc(N=Nc2ccccc2[N+](=O)[O-])cc1,OCHEM
-0.23,I/C=C/I,OCHEM
-1.57,CCCCCCCCCC#N,eChemPortal
-4.811,CCCCC(CC)CCC(C)c1ccc2cccnc2c1O (configuration not stated),eChemPortal
-8.101,C[N+](C)(C)CC(O)CSCCC(F)(F)C(F)(F)C(F)(F)C(F)(F)C(F)(F)C(F)(F)F.[Cl-] (configuration not stated),eChemPortal
0.586,CC(C)OCCO,"PubChem, eChemPortal"
2.015,CC(C)OC(=O)C(F)(F)F,eChemPortal
0.985,FC(F)(F)C(F)(F)C(F)(F)C(F)(F)C(F)(F)C(F)(F)C(F)(F)C(F)(F)C(F)(F)F,ICF
-2.894,N#Cc1ccccc1O,eChemPortal
-2.788,CC(=O)C1(C)CC2=C(CCCC2(C)C)CC1C (configuration not stated),"OCHEM, eChemPortal"
-7,CN(C)C(=O)NC1CCCCCCC1,PubChem
-4.155,Clc1cc(Cl)c(-c2cc(Cl)ccc2Cl)c(Cl)c1,OCHEM
-5.569,Brc1cccc(Oc2c(Br)cc(Br)cc2Br)c1,OCHEM
-4.921,c1ccc(-c2cnc(-c3ccccc3)o2)cc1,eChemPortal
-6.339,O=C(O)C(O)c1ccccc1 (configuration not stated),eChemPortal
-7.471,CCCCCCCCOc1ccc(C(=O)c2ccccc2)c(O)c1,"PubChem, eChemPortal"
-0.224,CO[Si](C)(CCCCl)OC,eChemPortal
-5.523,COc1ccc(C(=O)[O-])cc1.[Na+],eChemPortal
1.076,CC[Si](Cl)(Cl)CC,PubChem
-6.312,CCCCCCCCCCCCOC(=O)CCSCCC(=O)OCCCCCCCCCCCC,eChemPortal
-9.523,O=C(Nc1ccc(Cl)c(Cl)c1)c1cc(Cl)cc(Cl)c1O,OCHEM
1.045,COCC(F)(F)C(F)(F)C(F)(F)C(F)F,ICF
-4.77,O=C(O)Cc1c(Cl)ccc(Cl)c1Cl,PubChem
-6.699,Cc1cc(N=Nc2cccc([N+](=O)[O-])c2)ccc1N(C)C,OCHEM
-6.606,CC1CCc2cc(F)cc3c(=O)c(C(=O)O)cn1c23 (configuration not stated),OCHEM
2.051,C[SiH](C)O[SiH](C)C,eChemPortal
-9.824,O=C([O-])CN(CCO)CCN(CC(=O)[O-])CC(=O)[O-].[Na+].[Na+].[Na+],eChemPortal
-11.12,Cc1nc(C(F)(F)F)c(C(O)=Nc2c(Br)cc(OC(F)(F)F)cc2Br)s1,OCHEM
-9.456,Brc1ccc(Oc2c(Br)c(Br)c(Br)c(Br)c2Br)cc1Br,OCHEM
-4.86,Sc1nnc(S)s1,eChemPortal
-1.523,CCO[Si](CCCN=C=O)(OCC)OCC,eChemPortal
-3.001,CCCCCC(C=O)=Cc1ccccc1,eChemPortal
2.022,COCC(F)(F)C(F)F,ICF
-4.624,O=C(O)CN(CCO)CCO,eChemPortal

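The OPERA project collected these measurements from public sources as training and test data for property models. The files give a single number for a compound and property, which may rest on several reports. Conditions of the individual experiments are not part of the data. A value may pool stereoisomers or salt forms, and the file does not say which form was measured. Some entries may be limits or estimates that an upstream database listed as plain numbers.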

Values as listed in the OPERA 2.9 repository of K. Mansouri.